# According to patent US20240285644A1, “ASSESSING AND TREATING PROSTATE CANCER” (Mayo Foundation for Medical Education and Research, priority 2021, published 2024):
# Tested on: androgen receptor (AR)
# Test: Androgen receptor level in LNCaP cells (Western blot)
# Assay type: cell-based
smiles,measurement,value
CNC(=O)c1ccc(N2C(=S)N(c3ccc(C#N)c(C(F)(F)F)c3)C(=O)C2(C)C)cc1F [enzalutamide],AR level in LNCaP cells,downregulates AR
